{"source": "PubChem BioAssay (NCI)", "note": "The list shows a part of the results, in another mix than the full data. Where a structure was tested more than once in an assay, its records may differ in their call. Activity calls are given as the source filed them. Rule as the data show it: active = growth inhibition above about 70%; inactive = the rest."}
{"experiment": "NCI Yeast Anticancer Drug Screen. Data for the rad50 strain (AID 155);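 also: 0% = growth of vehicle-only cultures of the same strain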", "settings": "S. cerevisiae rad50 strain growth inhibition; at 50.0 µM; hits give high values"}
{"compound": "CCOC(=O)NP(=O)(NC(=O)NOC)NC(=O)OCC", "growth inhibition": "inactive: -14.8%"}
{"compound": "CC=C(c1ccc(N(CC)CC)cc1)c1ccc(N(CC)CC)cc1", "growth inhibition": "inactive: 1.4%"}
{"compound": "N#CCN/C(N)=N/[N+](=O)[O-]", "growth inhibition": "inactive: 2.9%"}
{"compound": "C#CCOP(=O)(CCl)N(CCCl)CCCl", "note": "(configuration not stated)", "growth inhibition": "inactive: 4.65%"}
{"compound": "O=P1(N(CCCl)CCCl)NCc2ccccc2O1", "note": "(configuration not stated)", "growth inhibition": "inactive: -0.25%"}
{"compound": "Cc1ccc(C)c(S(=O)(=O)N(CCCl)CCCl)c1", "growth inhibition": "inactive: -30.6%"}
{"compound": "Fc1cccc(NC2=NCC(CI)S2)c1", "note": "(configuration not stated)", "growth inhibition": "inactive: -5.1%"}
{"compound": "CC(C)(C(=O)c1cc([N+](=O)[O-])cc([N+](=O)[O-])c1)c1cc([N+](=O)[O-])cc([N+](=O)[O-])c1", "growth inhibition": "inactive: -2%"}
{"compound": "CCCC1OP(N)(=O)OCC1CC", "note": "(configuration not stated)", "growth inhibition": "inactive: 1.7%"}
{"compound": "Fc1ccc(NC2=NCC(CI)S2)c(F)c1", "note": "(configuration not stated)", "growth inhibition": "inactive: 12.1%"}
{"compound": "CC(=O)SCC(Cl)Cl", "growth inhibition": "inactive: -2.45%"}
{"compound": "CCOP1OCC(C)O1", "note": "(configuration not stated)", "growth inhibition": "inactive: 15.2%"}
{"compound": "O=C(Nc1cc([N+](=O)[O-])cc([N+](=O)[O-])c1)c1cc([N+](=O)[O-])cc([N+](=O)[O-])c1", "growth inhibition": "inactive: -11.8%"}
{"compound": "CS(=O)(=O)OC1CSCC1OS(C)(=O)=O", "note": "(configuration not stated)", "growth inhibition": "inactive: -3.35%"}
{"compound": "N/C(=N\\[N+](=O)[O-])NNC=O", "growth inhibition": "inactive: 1.05%"}
{"compound": "NC1=NC(c2ccccc2[N+](=O)[O-])P(=O)(Nc2ncccn2)S1", "note": "(configuration not stated)", "growth inhibition": "inactive: -9.55%"}
{"compound": "O=C(O)c1cccc(N(CCCl)CCCl)c1", "growth inhibition": "inactive: 16.6%"}
{"compound": "O=[As]c1ccc(F)cc1", "note": "(configuration not stated)", "growth inhibition": "active: 99.2%"}
{"compound": "CCOC(=O)NC(c1ccc(OC)c(OC)c1)P(=O)(O)Nc1ncn[nH]1", "note": "(configuration not stated)", "growth inhibition": "inactive: 9.45%"}
{"compound": "CCCOP(=S)(Nc1ccc(C)cn1)OCCC", "growth inhibition": "inactive: 4.75%"}
{"compound": "c1ccc2c(c1)N=C1CCCC3CCCCC123", "note": "(configuration not stated)", "growth inhibition": "inactive: 42.5%"}
{"compound": "CCN(CC)P1OCC(C)O1", "note": "(configuration not stated)", "growth inhibition": "inactive: -7.8%"}
{"compound": "CC[As](=O)(O)O", "growth inhibition": "inactive: -1.35%"}
{"compound": "Cn1c(=O)c([N+](=O)[O-])c(N=[N+]=[N-])c2ccccc21", "growth inhibition": "active: 89.2%"}
{"compound": "C[As](C)SC(C)(C)C(N)C(=O)O", "note": "(configuration not stated)", "growth inhibition": "inactive: 2.6%"}
{"compound": "CCCCOP(N)(=O)OCCCC", "growth inhibition": "inactive: 8.55%"}
{"compound": "O=[N+]([O-])c1ccc(N(CCS)c2ccc([N+](=O)[O-])cc2[N+](=O)[O-])c([N+](=O)[O-])c1", "growth inhibition": "inactive: -14.8%"}
{"compound": "CC(=O)OC1CNP(=O)(N(CCCl)CCCl)OC1", "note": "(configuration not stated)", "growth inhibition": "inactive: 34.1%"}
{"compound": "Cc1c([N+](=O)[O-])c(C)c(S(=O)(=O)c2c(C)c([N+](=O)[O-])c(C)c([N+](=O)[O-])c2C)c(C)c1[N+](=O)[O-]", "growth inhibition": "inactive: 43%"}
{"compound": "CCOP1(=O)N=C(/N=C(\\N)N(CC)CC)N(C)C1(C)C", "note": "(configuration not stated)", "growth inhibition": "inactive: -33.9%"}
{"compound": "O=C(O)C1C[N+]12C=CC=CC2=O", "note": "(configuration not stated)", "growth inhibition": "inactive: 5.6%"}
{"compound": "FC1(F)SC(Cl)C(Cl)(Cl)C1(F)F", "note": "(configuration not stated)", "growth inhibition": "inactive: 7.95%"}
{"compound": "O=P1(N(CCCl)CCCl)NC(CO)CO1", "note": "(configuration not stated)", "growth inhibition": "inactive: -7.35%"}
{"compound": "O=[As]c1ccc(NC(=O)c2ccccc2)cc1", "note": "(configuration not stated)", "growth inhibition": "inactive: 5%"}
{"compound": "CCCCCCCCCCCCCCCC(=O)OCC(COP(=O)(Oc1ccccc1)N(CCCl)CCCl)OC(=O)CCCCCCCCCCCCCCC", "note": "(configuration not stated)", "growth inhibition": "inactive: 2%"}
{"compound": "BrC1C2(SCCS2)[C@@H]2C[C@@H](c3ccccc32)C12SCCS2", "note": "(some centres not stated)", "growth inhibition": "inactive: 22.9%"}
{"compound": "ClC1CCCCC1SCCCC1OCCO1", "note": "(configuration not stated)", "growth inhibition": "inactive: 0.1%"}
